This is a selection: effects in other tests are not listed, and their absence says nothing.
Target: hKv1.5 potassium channel (Homo sapiens, UniProt P22460)
Experiment: Whole-cell patch clamp assay on HEK 293 cells stably expressing hKv1.5
Settings: read-out: hKv1.5 IC50, HEK 293 cells expressing hKv1.5, 25 °C, mean ± SD

Protein sequences, listed by entry. Tags and fused reporters are not part of them.
UniProt P22460, whole entry: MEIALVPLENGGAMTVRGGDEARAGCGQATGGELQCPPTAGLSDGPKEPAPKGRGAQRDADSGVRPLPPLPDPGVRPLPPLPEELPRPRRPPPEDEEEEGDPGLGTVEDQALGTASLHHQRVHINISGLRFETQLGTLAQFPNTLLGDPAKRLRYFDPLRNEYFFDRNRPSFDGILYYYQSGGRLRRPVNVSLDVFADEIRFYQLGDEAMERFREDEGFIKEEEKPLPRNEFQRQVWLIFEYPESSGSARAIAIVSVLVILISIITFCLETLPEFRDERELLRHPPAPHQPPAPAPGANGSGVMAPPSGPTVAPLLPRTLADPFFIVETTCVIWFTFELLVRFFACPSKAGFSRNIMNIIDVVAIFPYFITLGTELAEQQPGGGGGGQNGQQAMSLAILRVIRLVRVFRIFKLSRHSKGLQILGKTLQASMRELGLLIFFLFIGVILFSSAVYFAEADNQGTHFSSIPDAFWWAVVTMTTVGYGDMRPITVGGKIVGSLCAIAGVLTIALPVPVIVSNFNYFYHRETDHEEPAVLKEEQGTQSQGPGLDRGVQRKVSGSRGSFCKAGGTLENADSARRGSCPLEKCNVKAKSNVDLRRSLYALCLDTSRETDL

COc1ccc(NC2CCN(Cc3nc4ccccc4o3)CC2)cc1
IC50: 1570 nM
